{"source": "ChEMBL document CHEMBL1138057", "about": "“Synthesis and structure-activity relationships of N-{3-[2-(4-alkoxyphenoxy)thiazol-5-yl]-1- methylprop-2-ynyl}carboxy derivatives as selective acetyl-CoA carboxylase 2 inhibitors” (J Med Chem, 2006)", "target": "Acetyl-CoA carboxylase 1 (Rattus norvegicus, UniProt P11497)", "assay": "Inhibitory activity against rat ACC1", "note": "pIC50: −log10 of the molar value.", "data": [{"smiles": "O=C(c1c2ccccc2cc2ccccc12)N1CCC(N2CCC[C@@H](C(=O)N3CCOCC3)C2)CC1", "values": [{"measurement": "pIC50", "result": 7.28}]}]}
